For one compound, EC50 and Ki results are on record in patent publication US20060258739A1, “Dihydrobenzofuran derivatives and uses therof” (Wyeth, priority 2005, published 2006).

Amino acid sequences for entries named in this document (tags omitted). Residues count along the entry.
UniProt P28335, 33-458: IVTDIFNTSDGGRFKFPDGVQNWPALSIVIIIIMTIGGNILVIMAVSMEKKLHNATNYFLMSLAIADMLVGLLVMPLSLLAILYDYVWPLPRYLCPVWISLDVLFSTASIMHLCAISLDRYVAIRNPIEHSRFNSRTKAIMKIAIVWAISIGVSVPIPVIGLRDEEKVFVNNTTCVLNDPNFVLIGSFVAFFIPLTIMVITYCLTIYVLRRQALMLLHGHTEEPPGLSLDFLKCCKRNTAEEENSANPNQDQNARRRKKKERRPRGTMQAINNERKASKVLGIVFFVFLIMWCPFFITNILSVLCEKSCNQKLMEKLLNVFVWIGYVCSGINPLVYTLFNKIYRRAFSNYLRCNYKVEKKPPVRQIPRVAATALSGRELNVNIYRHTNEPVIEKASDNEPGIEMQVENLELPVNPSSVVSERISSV

pEC50, pKi: −log10 of the molar value.

The target in one experiment is human 5-HT2C receptor (Homo sapiens, UniProt P28335). The following applies: calcium mobilization, response as % of maximal 5-HT response. For orientation: A change in cytosolic calcium serves as a functional read-out for many receptors and channels.
The target in experiment [1] is T1, human 5-hydroxytryptamine-2C (h5-HT2C) receptor (Homo sapiens, UniProt P28335).
T1 construct: expressed in transfected cells; host or cells: CHO (Chinese Hamster Ovary) cells; membrane preparation
Description: [125I]DOI radioligand binding to membranes of CHO cells expressing the h5-HT2C receptor. The following applies: displacement of [125I]DOI, CHO cell membranes, room temperature 60 min; read-out: Ki (95% confidence interval). On the technique in general: Loss of bound radioactivity is the signal in a displacement assay; it reports binding, not function.

For `Clc1cccc(N2CCNCC2)c1` [mCPP, meta-chlorophenylpiperazine], the pEC50 on human 5-HT2C receptor is 8.27. Also, in experiment [1], the pKi was 8.19.

Broadly, the pEC50 is the negative decadic logarithm of the EC50, by convention in mol/L. As usually defined, the pKi is the Ki on a negative log10 scale, so that one unit is a factor of ten.
